Assay results taken from patent US11542298B2, “Hydroxysteroid compounds, their intermediates, process of preparation, composition and uses thereof” (Epirium Bio Inc., priority 2014, dated 2023).
Where two headings read alike, the source gives them in different places.

Tests used:
[1] = test system: PPARGC1a-PGC1a-, TFAM, subunits 1 and 2 of cytochrome oxidase, Nrf1 and TFB2M; conditions: HepG2, 3 hours; for expression of mitochondrial transcription factors (PGC1a, TFAM, cytochrome oxidase subunits 1 and 2 mRNA): FIG. 1b; for expression of mitochondrial transcription factors (Nrf1 and TFB2M mRNA): FIG. 3a
HepG2 cells = conditions: HepG2, 10 nM, FIG. 4
[2] = listed as 11β-hydroxypregnenolone

CC(=O)C1CC[C@H]2[C@@H]3CC=C4CC(O)CC[C@]4(C)[C@H]3[C@@H](O)C[C@]12C (stereo partly drawn) [Compound 1039, 1-((8S,9S,10R,11S,13S,14S)-3,11-dihydroxy-10,13-dimethyl-2,3,4,- 7,8,9,10,11,12,13,14,15,16,17-tetradecahydro-1H-cyclopenta[a]-phenanthren-17-yl)ethanone]
expression of mitochondrial transcription factors (PGC1a, TFAM, cytochrome oxidase subunits 1 and 2 mRNA) [1]: expresses mitochondrial transcription factors as early as 3 hours of exposure
expression of mitochondrial transcription factors (PGC1a, TFAM, cytochrome oxidase subunits 1 and 2 mRNA) [1, 2]: stimulation of expression of mitochondrial transcription factors
expression of mitochondrial transcription factors (Nrf1 and TFB2M mRNA) [1]: stimulates the expression of mitochondrial transcription factors
expression of mitochondrial transcription factors (Nrf1 and TFB2M mRNA) [1, 2]: stimulation of expression of mitochondrial transcription factors
mitochondrial superoxide generation (HepG2 cells): reduces superoxide generation in mitochondria
mitochondrial superoxide generation (HepG2 cells; [2]): reduction of mitochondrial superoxide generation
